One series deals with PC-3. Nature of the series: Antiproliferative activity against human PC-3 cells assessed as reduction in cell viability measured after 72 hrs by CCK-8 method. The note with it: PC-3, 72 h. A general note: Tetrazolium dyes change colour on reduction, which living cells bring about.
Series [1] in a line: in vivo. To be noted: Sprague-Dawley, rat, po, 40 mg/kg.
For another series, the system named is LNCaP C4-2. Nature of the series: Antiproliferative activity against human C4-2 cells assessed as reduction in cell viability measured after 72 hrs by CCK-8 method. The note with it: LNCaP C4-2, 72 h.
In the next series the test system is LNCaP. Briefly: Antiproliferative activity against human LNCaP cells assessed as reduction in cell viability measured after 72 hrs by CCK-8 method.
A short description of series [2]: Antiproliferative activity against African green monkey COS-7 cells assessed as reduction in cell viability measured after 72 hrs by CCK-8 method. To be noted: chlorocebus aethiops.
Series [3] has as its target T1, Androgen receptor (Homo sapiens, UniProt P10275).
Series [4] in a line: in vivo. To be noted: Sprague-Dawley, rat, po, 40 mg/kg. This is another data set of the same source.
In another series the test system is CWR22R. Nature of the series: Antiproliferative activity against human 22Rv1 cells assessed as reduction in cell viability measured after 72 hrs by CCK-8 method. To be noted: 22Rv1, 72 h.
For another series, the system named is DU-145. Nature of the series: Antiproliferative activity against human DU-145 cells assessed as reduction in cell viability measured after 72 hrs by CCK-8 method. To be noted: DU-145, 72 h.
Series [5] deals with T1, Androgen receptor. The source holds these as a separate data set.

By UniProt entry, the sequences of proteins in these tests, tags left out. Where a name states a change or a piece, a line headed by the entry shows the natural chain unless it says otherwise.
UniProt P10275: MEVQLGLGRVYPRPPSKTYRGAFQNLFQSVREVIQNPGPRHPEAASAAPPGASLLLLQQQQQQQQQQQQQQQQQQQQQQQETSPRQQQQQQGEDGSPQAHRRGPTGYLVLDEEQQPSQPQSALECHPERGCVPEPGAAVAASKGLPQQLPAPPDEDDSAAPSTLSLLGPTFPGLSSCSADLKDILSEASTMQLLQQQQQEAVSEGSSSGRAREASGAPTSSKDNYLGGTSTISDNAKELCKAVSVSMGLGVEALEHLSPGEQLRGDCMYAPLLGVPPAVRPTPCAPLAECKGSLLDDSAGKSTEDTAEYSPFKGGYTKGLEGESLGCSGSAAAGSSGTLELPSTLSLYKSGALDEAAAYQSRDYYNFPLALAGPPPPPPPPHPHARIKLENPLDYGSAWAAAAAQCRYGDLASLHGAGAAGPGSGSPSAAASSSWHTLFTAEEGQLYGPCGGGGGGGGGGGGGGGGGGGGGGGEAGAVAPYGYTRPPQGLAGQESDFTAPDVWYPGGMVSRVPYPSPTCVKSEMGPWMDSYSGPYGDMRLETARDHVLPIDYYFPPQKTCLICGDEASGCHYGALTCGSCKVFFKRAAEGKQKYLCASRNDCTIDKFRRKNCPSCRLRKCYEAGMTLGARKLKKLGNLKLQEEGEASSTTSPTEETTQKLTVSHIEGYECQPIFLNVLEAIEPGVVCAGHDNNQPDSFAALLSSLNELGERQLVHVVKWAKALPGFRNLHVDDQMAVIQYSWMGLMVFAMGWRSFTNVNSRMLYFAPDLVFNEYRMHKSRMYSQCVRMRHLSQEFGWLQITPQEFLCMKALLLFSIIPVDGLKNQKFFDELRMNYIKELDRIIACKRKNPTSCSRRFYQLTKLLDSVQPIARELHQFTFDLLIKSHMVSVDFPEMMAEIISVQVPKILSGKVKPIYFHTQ

The structures appear in SMILES notation. Where only a bound is given, the exact number is not on record here.

The CC50 is the concentration at which the toxic effect on the cells reaches its halfway point. What is called half-life is how long it takes for the measured level to halve. For orientation: IC50 means the midpoint of a concentration-inhibition curve. As usually defined, the Tmax is the time from dosing to the highest level. For the molecule `N#Cc1ccc(NC(=O)c2cccc(S(=O)(=O)N3CCCc4ccccc43)c2)cc1`, the half-maximal cytotoxic concentration (CC50) is 27.8 µM with PC-3; 7.9 µM with LNCaP C4-2; 2.45 µM in the series on LNCaP; 11.6 µM in the series with CWR22R; 33.3 µM with DU-145. The half-life at 8 h in the series “in vivo [1]” is 1.16 h. Besides, the 50% cytotoxic concentration (CC50) at 72 h in [2] was over 50 µM. Also, the half-maximal inhibitory concentration (IC50) on Androgen receptor [3] came to 0.13 µM; on Androgen receptor [5], 0.458 µM. Besides, in “in vivo [4]”, the time of peak concentration (Tmax) at 8 h was 2.5 h.
For the molecule `Cc1ccc(NC(=O)c2ccc(NC(=O)c3cccc(S(=O)(=O)N4CCCc5ccccc54)c3)s2)cc1`, the CC50 in the series on PC-3 turned out to be 2.3 µM; in the series with LNCaP C4-2, 2.38 µM; with LNCaP, 3.96 µM; in the series on DU-145, 3.38 µM. Besides, in series [2], the half-maximal cytotoxic concentration (CC50) at 72 h turned out to be 12.1 µM.

The values are drawn from ChEMBL document CHEMBL5528070, “Design and Synthesis of Dual-Target Inhibitors Targeting Androgen Receptors and Glucocorticoid Receptors to Overcome Antiandrogen Resistance in Castration-Resistant Prostate Cancer” (J Med Chem, 2024).
